Patent EP0528486A2, “Non-substrate inhibitors of farnesyl protein transferase” (MERCK & CO. INC., priority 1991, dated 1993)

Biological target: farnesyl-protein transferase from bovine brain (bovine) (UniProt P29702)
Assay: cell-based or functional assay

Row | IC₅₀ (µM), Inhibition of Ras Farnesylation by Tetrapeptides | Substance
1 | 2.3 µM | CVFM-NH₂ (SEQ ID NO: 2) (peptide)
2 | 16 µM | CVLS-NH₂ (SEQ ID NO: 1) (peptide)
